# Laboratory results published in patent US20090005395A1 (Solvay Pharmaceuticals, B.V., priority 2007, published 2009).
# Chains of the proteins cited; added tags and fusions are not shown.
# UniProt O00408, whole entry: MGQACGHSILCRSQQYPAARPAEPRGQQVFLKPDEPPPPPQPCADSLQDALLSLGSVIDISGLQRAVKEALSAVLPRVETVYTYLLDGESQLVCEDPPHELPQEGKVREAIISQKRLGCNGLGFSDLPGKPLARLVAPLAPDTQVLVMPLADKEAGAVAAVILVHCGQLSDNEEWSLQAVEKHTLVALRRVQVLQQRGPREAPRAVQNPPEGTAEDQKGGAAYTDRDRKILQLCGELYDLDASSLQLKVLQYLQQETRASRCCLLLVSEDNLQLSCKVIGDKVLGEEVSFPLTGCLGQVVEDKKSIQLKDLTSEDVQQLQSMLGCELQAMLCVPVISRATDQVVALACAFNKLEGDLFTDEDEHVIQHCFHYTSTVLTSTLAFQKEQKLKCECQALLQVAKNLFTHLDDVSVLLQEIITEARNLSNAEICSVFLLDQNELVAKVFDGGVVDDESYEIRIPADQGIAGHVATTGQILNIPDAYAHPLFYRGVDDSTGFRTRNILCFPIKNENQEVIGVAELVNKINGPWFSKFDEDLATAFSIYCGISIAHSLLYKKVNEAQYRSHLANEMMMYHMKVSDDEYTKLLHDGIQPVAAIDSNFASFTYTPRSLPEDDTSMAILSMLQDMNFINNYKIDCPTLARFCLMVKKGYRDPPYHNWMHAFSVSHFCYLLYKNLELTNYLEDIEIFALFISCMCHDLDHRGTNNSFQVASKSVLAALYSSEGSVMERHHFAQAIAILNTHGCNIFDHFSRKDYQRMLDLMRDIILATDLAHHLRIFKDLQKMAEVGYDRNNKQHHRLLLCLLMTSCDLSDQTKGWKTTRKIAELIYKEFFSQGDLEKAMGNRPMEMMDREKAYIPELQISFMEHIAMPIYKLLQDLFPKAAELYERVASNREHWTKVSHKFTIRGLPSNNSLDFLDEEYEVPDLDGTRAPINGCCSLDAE
# Columns and labels:
# [1] = Plasma pharmacokinetics of sildenafil and its N-oxide; type: in vivo; settings: male, NMRI, mouse, brain, mice, read-out: Brain/plasma ratio
# Method: Liquid Chromatography-Tandem Mass Spectrometry (LC-MS/MS) was performed using a Sciex API4000 LC-MS/MS. […] Compound peak area was used for quantification. The calibration curves were fitted to the model y=A+Bx+Cx^2 (y is the peak area of the analyte, x is the nominal calibration level in ng/ml (plasma) or ng/g (brain), A is the intercept, B is the slope and C is the description of the curvature). 1/x^2 weighing was used. LC-MS/MS system performance was monitored using a reference solution injected at standard intervals. […] The Lower Limit Of Quantification (LLOQ) was established at 1.00 ng/ml and 5.00 ng/brain, for plasma and brain samples, respectively. Reversed phase HPLC was performed using gradient elution by a Hypersil BDS C18 100×4.6 mm 3 μm analytical column, with a temperature of 45° C. and a flow of 1.00 ml/min: […]
# PDE-II = PDE-II (Homo sapiens, UniProt O00408); experiment: In vitro inhibition of phosphodiesterases (CEREP): PDE-II
compound,measurement,setting,value
"CCCc1nn(C)c2c(=O)[nH]c(-c3cc(S(=O)(=O)N4CCN(C)CC4)ccc3OCC)nc12 [Sildenafil, 1-[4-ethoxy-3-(6,7-dihydro-1-methyl-7-oxo-3-propyl-1H-pyrazolo[4,3-d]pyrimidin-5-yl)phenyl-sulfonyl]-4-methylpiperazine, reference compound]",Kp,"[1]; iv, i.v. 1 mg/kg",0.4
same,Kp,"[1]; po, p.o. 10 mg/kg",0.3
same,IC50,PDE-II,> 10 µM

# Like-named read-outs stand apart in the source and are kept apart here.
